Source: patent publication US12662479B2 (Foghorn Therapeutics Inc., priority 2020, dated 2026)
Structures can show the parent of a compound that is named as a salt.

Amino acid sequences for entries named in this document (tags omitted).
UniProt P51532, whole entry: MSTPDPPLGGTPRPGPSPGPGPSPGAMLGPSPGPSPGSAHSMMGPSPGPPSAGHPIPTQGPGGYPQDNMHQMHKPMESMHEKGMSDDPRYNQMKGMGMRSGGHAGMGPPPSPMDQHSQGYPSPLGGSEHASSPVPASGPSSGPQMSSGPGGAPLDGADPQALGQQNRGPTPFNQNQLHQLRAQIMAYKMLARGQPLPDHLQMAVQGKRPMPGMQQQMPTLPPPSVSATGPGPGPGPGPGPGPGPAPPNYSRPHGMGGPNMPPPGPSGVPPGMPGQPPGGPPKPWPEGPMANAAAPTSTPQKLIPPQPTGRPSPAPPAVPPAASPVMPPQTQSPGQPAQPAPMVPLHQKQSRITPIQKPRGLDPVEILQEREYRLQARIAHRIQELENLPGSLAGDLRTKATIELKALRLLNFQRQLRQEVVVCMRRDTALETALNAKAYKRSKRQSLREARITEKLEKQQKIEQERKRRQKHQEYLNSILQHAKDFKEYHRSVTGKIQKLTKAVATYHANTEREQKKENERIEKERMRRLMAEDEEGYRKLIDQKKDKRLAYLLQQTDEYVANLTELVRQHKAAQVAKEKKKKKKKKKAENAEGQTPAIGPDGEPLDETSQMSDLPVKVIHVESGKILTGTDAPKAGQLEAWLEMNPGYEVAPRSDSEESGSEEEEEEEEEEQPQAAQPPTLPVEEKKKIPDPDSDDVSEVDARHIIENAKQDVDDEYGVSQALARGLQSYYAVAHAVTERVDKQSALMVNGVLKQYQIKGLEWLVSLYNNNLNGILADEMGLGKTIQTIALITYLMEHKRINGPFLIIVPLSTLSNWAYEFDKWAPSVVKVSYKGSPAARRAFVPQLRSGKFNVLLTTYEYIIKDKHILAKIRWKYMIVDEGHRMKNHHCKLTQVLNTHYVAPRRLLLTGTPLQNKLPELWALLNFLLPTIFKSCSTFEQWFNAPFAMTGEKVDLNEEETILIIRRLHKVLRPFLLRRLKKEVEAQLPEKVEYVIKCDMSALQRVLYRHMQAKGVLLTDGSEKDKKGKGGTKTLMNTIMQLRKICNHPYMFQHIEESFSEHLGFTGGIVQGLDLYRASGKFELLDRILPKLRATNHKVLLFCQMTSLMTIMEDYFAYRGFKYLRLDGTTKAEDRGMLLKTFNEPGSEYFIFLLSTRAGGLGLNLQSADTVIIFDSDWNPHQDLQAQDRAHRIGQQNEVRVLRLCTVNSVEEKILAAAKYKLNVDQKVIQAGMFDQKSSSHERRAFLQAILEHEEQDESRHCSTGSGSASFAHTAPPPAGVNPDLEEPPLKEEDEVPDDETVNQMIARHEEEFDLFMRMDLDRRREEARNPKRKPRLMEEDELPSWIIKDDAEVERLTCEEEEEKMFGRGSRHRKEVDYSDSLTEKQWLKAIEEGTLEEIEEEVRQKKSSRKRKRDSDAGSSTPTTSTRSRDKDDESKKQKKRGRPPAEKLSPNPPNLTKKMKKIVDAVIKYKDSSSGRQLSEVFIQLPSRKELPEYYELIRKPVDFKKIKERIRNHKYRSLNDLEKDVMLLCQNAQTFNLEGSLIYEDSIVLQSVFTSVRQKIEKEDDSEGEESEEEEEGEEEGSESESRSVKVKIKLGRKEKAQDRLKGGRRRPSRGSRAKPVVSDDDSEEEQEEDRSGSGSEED

Target: T1, HiBit-BRG1 fusion protein (Homo sapiens, UniProt P51532)
T1 construct: expressed in transfected cells
Test: HiBiT-BRG1 cell-based degradation assay (Nano-Glo HiBiT Lytic Detection, 24 h)
Set-up: dose or concentration left out as unconfirmed
Conditions: HeLa, read-out: BRG1 HiBit Degradation Maximum measured
Description: Procedure: A stable HeLa cell line expressing HiBiT-BRM was generated. On day 0, 5000 cells were seeded in 40 μL of media into each well of 384-well cell culture plates. […] Nano-Glo HiBiT Lytic Detection System (Promega N3050) reagent was freshly prepared and 20 ul was added to each well. Upon addition of this LgBit-containing reagent, the HiBiT and LgBiT proteins associate to form the luminescent NanoBiT luciferase. The plates were shaken for 10 minutes at room temperature and the bioluminescence read using an EnVision plate reader (PerkinElmer).
For measurement of BRG1 degradation, a stable HeLa cell line expressing HiBit-BRG1 and LgBit was generated. The same protocol as above was then followed.
The degradation % was calculated using the following formula: % degradation=100%−100%×(LumSample−LumLC)/(LumHC−LumLC). DMSO treated cells are employed as High Control (HC) and 2 μM of a known BRM/BRG1 degrader standard treated cells are employed as Low Control (LC).

Molecule `Cc1ncsc1-c1ccc(CNC(=O)[C@@H]2C[C@@H](O)CN2C(=O)[C@@H](NC(=O)CCN2CC(C(=O)NCc3cccc(-c4cccc(-c5csc(NC(=O)CNC(=O)c6ccn(S(C)(=O)=O)c6)n5)c4)c3)C2)C(C)(C)C)cc1` [Compound 154, (2S,4R)-4-hydroxy-1-[(2S)-2-[3-[3-([[3-(2-[2-[(1-methanesulfonylpyrrol-3-yl)formamido]acetamido]-1,3-thiazol-4-yl)-[1,1-biphenyl]-3-yl]methyl]carbamoyl)azetidin-1-yl]propanamido]-3,3-dimethylbutanoyl]-N-[[4-(4-methyl-1,3-thiazol-5-yl)phenyl]methyl]pyrrolidine-2-carboxamide formate] has a Dmax of less than 50%.

Work on `Cc1ncsc1-c1ccc(CNC(=O)[C@@H]2C[C@@H](O)CN2C(=O)[C@@H](NC(=O)CCN2CCC(C(=O)NCc3cccc(-c4cccc(-c5csc(NC(=O)CNC(=O)c6ccn(S(C)(=O)=O)c6)n5)c4)c3)CC2)C(C)(C)C)cc1` [Compound 155, 1-(2-[[(2S)-1-[(2S,4R)-4-hydroxy-2-([[4-(4-methyl-1,3-thiazol-5-yl)phenyl]methyl]carbamoyl)pyrrolidin-1-yl]-3,3-dimethyl-1-oxobutan-2-yl]carbamoyl]ethyl)-N-[[3-(2-[2-[(1-methanesulfonylpyrrol-3-yl)formamido]acetamido]-1,3-thiazol-4-yl)-[1,1-biphenyl]-3-yl]methyl]piperidine-4-carboxamide formate] yielded a Dmax of less than 50%.

Work on `CS(=O)(=O)n1ccc(C(=O)N[C@@H](COCc2ccc(C(=O)N3CC(COc4ccc5c(c4)C(=O)N(C4CCC(=O)NC4=O)C5=O)C3)cc2)C(=O)Nc2nc(-c3ccccc3)cs2)c1` (stereo partly drawn) [Compound 198, (2S)-3-([4-[3-([[2-(2,6-dioxopiperidin-3-yl)-1,3-dioxoisoindol-5-yl]oxy]methyl)azetidine-1-carbonyl]phenyl]methoxy)-2-[(1-methanesulfonylpyrrol-3-yl)formamido]-N-(4-phenyl-1,3-thiazol-2-yl)propanamide] yielded a Dmax of less than 50%.
